These are literature values, as cited in publication PMC4708017, “Antiplasmodial activity of iron(II) and ruthenium(II) organometallic complexes against Plasmodium falciparum blood parasites” (Memórias do Instituto Oswaldo Cruz, 2015).

For this data set the following is noted: ref Held et al. 2015a; cited from earlier work.

Regarding ferroquine, the half-life is recorded as > 20 days.

The term half-life denotes the time needed for the level to fall by half in the phase considered.
